This assay has as its target 5-hydroxytryptamine receptor 5B (Rattus norvegicus, UniProt P35365).

Sequences of proteins named here, by UniProt entry; tags and fusion partners are left off.
UniProt P35365, whole entry: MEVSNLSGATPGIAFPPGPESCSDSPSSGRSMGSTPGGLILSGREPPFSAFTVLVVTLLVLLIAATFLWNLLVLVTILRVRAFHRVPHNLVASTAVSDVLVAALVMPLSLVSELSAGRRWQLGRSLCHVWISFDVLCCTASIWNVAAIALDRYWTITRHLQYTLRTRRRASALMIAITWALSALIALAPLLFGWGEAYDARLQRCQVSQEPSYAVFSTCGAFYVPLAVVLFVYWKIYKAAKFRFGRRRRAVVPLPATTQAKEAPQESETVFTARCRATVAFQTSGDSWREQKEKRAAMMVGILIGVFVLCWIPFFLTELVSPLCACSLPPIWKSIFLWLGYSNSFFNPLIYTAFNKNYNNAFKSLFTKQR

In the case of `NCCc1c[nH]c2ccc(O)cc12` [[3H]-5-HT], the inhibition constant (Ki) was determined as 7.8 nM.

Consider `CSc1ccc2c(c1)C(N1CCN(C)CC1)Cc1ccccc1S2` (configuration not stated) [methanesulfonic acid;1-methyl-4-(3-methylsulfanyl-5,6-dihydrobenzo[b][1]benzothiepin-5-yl)piperazine], for which the Ki was found to be 44.2 nM.

Usually Ki stands for a dissociation constant, usually derived from enzyme kinetics or from competition with a known ligand. Low values mean tighter binding, high ones weaker binding.

These data come from BindingDB's records for doi:10.1016/0014-5793(93)80368-5 (University of Heidelberg Zmbh, 1993).
